Laboratory results reported in US8268821B2, “Methods and compositions” (priority 2003, dated 2012).
Read-outs that look alike come from different tables or passages of the source. Marks after values point to notes of the source that are not given here.

Tested on: male Wistar rats
Conditions: for doses that cause sedation: ip, rotarod test

| Compound | doses that cause sedation | Lowest run time (s) mean (morphine 0.4 mg/kg ip alone, saline control 119.2) | Lowest run time (s) mean (morphine 0.8 mg/kg ip alone, saline control 119.2) | Lowest run time (s) mean (morphine 1.6 mg/kg ip alone, saline control 119.2) | Lowest run time (s) mean (morphine 3.2 mg/kg ip alone, saline control 119.2) | Lowest run time (s) mean (morphine 6.4 mg/kg ip alone, p < 0.05 vs saline control 119.2) | Lowest run time (s) mean (flupirtine 5 mg/kg ip alone, cut-off 2 minutes, saline control 119.2) | Lowest run time (s) mean (flupirtine 10 mg/kg ip alone, saline control 119.2) | Lowest run time (s) mean (flupirtine 20 mg/kg ip alone, p < 0.05 vs saline control 119.2) |
| --- | --- | --- | --- | --- | --- | --- | --- | --- | --- |
| CN1CC[C@]23c4c5ccc(O)c4O[C@H]2[C@@H](O)C=C[C@H]3[C@H]1C5 [morphine] | greater than 3.2 mg/kg | 120 s | 120 s | 110.4 s | 99.6 s | 60* s | – | – | – |
| CCOC(=O)Nc1ccc(NCc2ccc(F)cc2)nc1N [flupirtine] | greater than 10 mg/kg | – | – | – | – | – | 118.4 s | 107.7 s | 58.1* s |
